Experimental data: publication PMC11178805, “Ligand-based design of [^18F]OXD-2314 for PET imaging in non-Alzheimer’s disease tauopathies” (Nature Communications, 2024)

The chains behind the UniProt entries cited, without tags or fusion partners. Residues count along the entry.
UniProt P10636, 1-441 isoform 8: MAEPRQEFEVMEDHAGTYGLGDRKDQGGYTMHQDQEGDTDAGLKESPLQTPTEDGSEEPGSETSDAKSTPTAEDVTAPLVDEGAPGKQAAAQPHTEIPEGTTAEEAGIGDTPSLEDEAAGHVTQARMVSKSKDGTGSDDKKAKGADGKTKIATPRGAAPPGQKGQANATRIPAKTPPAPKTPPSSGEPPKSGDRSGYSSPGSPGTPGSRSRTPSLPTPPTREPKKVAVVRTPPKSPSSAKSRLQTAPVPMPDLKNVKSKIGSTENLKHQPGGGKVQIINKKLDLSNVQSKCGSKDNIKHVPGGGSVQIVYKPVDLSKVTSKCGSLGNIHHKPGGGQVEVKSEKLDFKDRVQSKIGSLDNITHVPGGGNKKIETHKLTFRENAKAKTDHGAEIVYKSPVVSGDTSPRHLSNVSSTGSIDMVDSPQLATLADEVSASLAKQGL
UniProt P10636, 623-708 limits assumed: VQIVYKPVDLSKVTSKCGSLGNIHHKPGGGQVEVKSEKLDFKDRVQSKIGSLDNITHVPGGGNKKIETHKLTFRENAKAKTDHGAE
UniProt P10636, 1-410 isoform 5: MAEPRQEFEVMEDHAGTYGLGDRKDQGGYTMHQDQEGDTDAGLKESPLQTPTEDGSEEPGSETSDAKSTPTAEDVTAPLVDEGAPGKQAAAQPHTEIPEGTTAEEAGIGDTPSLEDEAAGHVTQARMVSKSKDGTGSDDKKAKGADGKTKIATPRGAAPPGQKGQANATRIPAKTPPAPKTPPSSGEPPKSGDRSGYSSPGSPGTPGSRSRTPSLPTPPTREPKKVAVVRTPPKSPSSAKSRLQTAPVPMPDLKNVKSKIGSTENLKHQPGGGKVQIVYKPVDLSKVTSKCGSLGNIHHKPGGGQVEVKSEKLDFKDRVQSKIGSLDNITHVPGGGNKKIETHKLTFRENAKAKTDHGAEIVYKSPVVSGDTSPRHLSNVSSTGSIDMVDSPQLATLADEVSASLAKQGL

How the values were obtained:
[1] = target: 3R/4R-tau aggregates in AD tissues (Homo sapiens, UniProt P10636); test: Radioligand Kd/Bmax assay (Scatchard) in AD brain homogenates; settings: read-out: AD Kd; AD frontal cortex homogenate pooled from three cases, n = 3, mean ± SD; tested as the radiolabelled form
[2] = target: 4R-tau aggregates in PSP tissues (Homo sapiens, UniProt P10636); test: Radioligand Kd/Bmax assay (Scatchard) in PSP brain homogenates; settings: read-out: PSP Kd; PSP frontal cortex homogenate pooled from three cases, n = 3, mean ± SD; tested as the radiolabelled form
[3] = target: 4R-tau aggregates in CBD tissues (Homo sapiens, UniProt P10636); test: Radioligand Kd/Bmax assay (Scatchard) in CBD brain homogenates; settings: read-out: CBD Kd; CBD frontal cortex homogenate pooled from three cases, n = 3, mean ± SD; tested as the radiolabelled form
[4] = target: 3R-tau aggregates in PiD tissues (Homo sapiens, UniProt P10636); test: Radioligand Kd/Bmax assay (Scatchard) in PiD brain homogenates; settings: read-out: PiD Kd; PiD frontal cortex homogenate pooled from three cases, n = 3, mean ± SD; tested as the radiolabelled form
[5] = system: PD tissue (frequent α-synuclein aggregates); test: Radioligand Kd/Bmax assay (Scatchard) in PD brain homogenates; settings: read-out: PD Kd; PD frontal cortex homogenate pooled from 4 cases, n = 3, mean ± SD; tested as the radiolabelled form
[6] = Radioligand Kd assay in healthy control brain homogenate; settings: control tissue, single subject, undefined = insufficient specific binding to fit the data, tested as the radiolabelled form

Row | SMILES | Kd [1] | Kd [2] | Kd [3] | Kd [4] | Kd [5] | Control Kd [6] | Control Kd ([6]; listed as [3H]OXD-2115)
1 | CNc1ccc(/C=C/C=C/c2nc3ccc(OCC(O)CF)cc3s2)cn1 (centres unmarked) | 4.1 nM | 4.6 nM | 36 nM | 20 nM | 5.1 nM | Undefined | 
2 | Fc1cc(-c2ccc3c(n2)[nH]c2ccncc23)ccn1 | 2.5 nM | 5.3 nM | 23 nM |  |  | Undefined | 
3 | OCC1CCN(c2ccc(-c3cc4cc(O)ccc4[nH]3)c(F)n2)CC1 [OXD-2115] | 5.5 nM | 4.9 nM | 27 nM | 34 nM | 48 nM | Undefined | undefined
